PDI turbidity – inhibitors of human protein disulfide isomerase | P07237 | PDI insulin aggregation turbidity, A650, 90 min | inhibition, % at 10 µM | actives 0.052% (n = 350,000) | AID 588391;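 active means mean inhibition across replicates of 30% or more, whatever share of single replicates reach that level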
SIRT5 block – inhibitors of human sirtuin-5 desuccinylase. Q9NXA8. Purified SirT5, succinyl-peptide AMC, trypsin-coupled fluorescence. inhibition, % at 15 µM. actives 1.1% (n = 330,000); in the data active means inhibition above about 15%
ERp5 block – inhibitors of human ERp5 | ERp5 insulin aggregation, absorbance 650 nm, 90 min | inhibition, % at 9.99 µM | actives 0.05% (n = 350,000);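 active means mean replicate inhibition above about 25%, with every replicate also reaching it, limit read from the data, passing the limit was not always enough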
S100A4 MyoIIA – inhibitors of human S100A4 binding to myosin IIA peptide | P26447 | S100A4/TAMRA-MyoIIA peptide fluorescence polarization | inhibition, % at 10.7 µM | actives 0.14% (n = 360,000);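 active means mean inhibition of at least 70% across replicates, with every replicate also reaching that level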
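Test system: S100A4 monomer protein. Medium: HEPES buffer with Ca2+, pH 7.2. Reagent: fluorescent myosin IIA peptide, 5 nM. Compound dosing: single-point compound testing. Timing: 5 min between mix addition and reading. Benchmarks: DMSO neutral and TFP positive wells.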
Yeast UUG start – yeast start codon fidelity modulation | S. cerevisiae UUG-firefly luciferase reporter, luminescence/redox ratio | activity score, % at 18.7 µM | hit rate 0.13% among 350,000 | AID 602363;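 active means replicate mean at a twofold rise or more, about +100% in these data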;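 further: firefly luciferase made from a UUG start codon reports start codon fidelity; reporter light over untreated wells divided by growth signal over untreated wells; some hits fall short of that in this replicate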
FGF22 binding – shifts melting point of recombinant human FGF22. Q9HCT0. recombinant FGF22 thermal shift, SYPRO orange fluorescence; percent of sucrose octasulfate shift, DMSO zero. activity (Tm shift, normalised), % at 9.99 µM. actives 1.5% (n = 340,000). AID 651658;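 active means mean Tm shift, scaled 0 neutral to 100 positive control, at about 1.3% or above, every replicate too, limit read from the data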
A number is an active result; – = inactive; · = no result. Most compounds without a hit are left out; they make up all but 2.2% or so of the library.

SMILES	PDI turbidity	SIRT5 block	ERp5 block	S100A4 MyoIIA	Yeast UUG start	FGF22 binding
C[C@H]1CN([C@@H](C)CO)S(=O)(=O)c2ccc(C#CC3CC3)cc2O[C@@H]1CN(C)Cc1ccc(F)cc1	·	19	–	–	–	–
O=C(C1CCCC1)N1CC[C@H]2[C@H](CO)Nc3ccc(C4=CCCCC4)cc3[C@H]21	·	–	–	–	·	·
C#CCOCCOCCOCCNc1nc(N2CCN(C(=O)[C@H](CCC(=O)O)n3cc(C(N)CC(C)C)nn3)CC2)nc(N2CCN(C(=O)[C@H](Cc3cc4ccccc4[nH]3)n3cc(C(N)CC(C)C)nn3)CC2)n1 (stereo partly specified)	36	·	·	·	–	·
C#CCOCCOCCOCCNc1nc(N2CCN(C(=O)[C@H](CCCCN)n3cc(CCCC)nn3)CC2)nc(N2CCN(C(=O)[C@H](Cc3ccc(O)cc3)n3cc(CCO)nn3)CC2)n1	129	·	·	·	–	·
C#CCOCCOCCOCCNc1nc(N2CCN(C(=O)[C@H](CCCN=C(N)N)n3cc(C(N)[C@H](C)CC)nn3)CC2)nc(N2CCN(C(=O)[C@H](CCCN=C(N)N)n3cc(C(N)[C@@H](C)CC)nn3)CC2)n1 (stereo partly specified)	–	·	·	·	–	·
C#CCOCCOCCOCCNc1nc(N2CCN(C(=O)[C@H](Cc3cc4ccccc4[nH]3)n3cc(C(N)CC(C)C)nn3)CC2)nc(N2CCN(C(=O)[C@H](CCC(=O)O)n3cc(C(N)[C@H](C)CC)nn3)CC2)n1 (stereo partly specified)	–	·	·	·	–	·
C#CCOCCOCCOCCNc1nc(N2CCN(C(=O)[C@H](CCCCN)n3cc(CC(C)O)nn3)CC2)nc(N2CCN(C(=O)[C@H](Cc3ccc(O)cc3)n3cc(CCO)nn3)CC2)n1 (stereo partly specified)	–	·	–	–	–	–
C#CCOCCOCCOCCNc1nc(N2CCOCC2)nc(N2CCN(C(=O)[C@H](CCCN=C(N)N)n3cc(C(N)[C@@H](C)CC)nn3)CC2)n1 (stereo partly specified)	–	·	–	–	–	15
C[C@@H]1CCCCO[C@H](CN(C)C(=O)C2CCCCC2)[C@H](C)CN([C@@H](C)CO)C(=O)c2cc(NC(=O)CCC(F)(F)F)ccc2O1	·	–	–	–	–	–
CN1CCN(C(=O)C[C@@H]2CC[C@@H]3[C@H](COC[C@H](O)CN3S(=O)(=O)c3cccc(Cl)c3)O2)CC1	·	–	–	–	–	–
C[C@H]1CN([C@@H](C)CO)C(=O)c2cc(NC(=O)Cn3cnnn3)ccc2O[C@@H]1CN(C)C(=O)Nc1ccc(F)cc1	·	–	–	–	–	–
Cc1noc(C)c1S(=O)(=O)Nc1cccc2c1O[C@H](CN(C)C(=O)Nc1ccc(C(F)(F)F)cc1)[C@H](C)CN([C@@H](C)CO)C2=O	·	–	63	–	–	–
C[C@@H]1CN([C@@H](C)CO)C(=O)c2cccc(NS(=O)(=O)c3ccc(F)cc3)c2O[C@H]1CN(C)C(=O)Nc1ccccc1	·	22	–	–	–	–
COc1ccc2c3c(n(C)c2c1)[C@@H](CO)N(C(=O)NC1CCCC1)CC31CCN(C)CC1	·	–	–	–	·	–
CC(C)NC(=O)N[C@H]1CC[C@H](CCNS(=O)(=O)c2ccc(F)cc2)O[C@@H]1CO	·	–	–	–	–	–
CCCC(C(=O)O)N1C(=O)/C(=C2\C(=O)N(C)c3ccccc32)SC1=S (stereo unspecified)	–	·	·	·	·	·
O=C(O)CN1C(=O)/C(=C2\SC(=S)N(C(Cc3ccccc3)C(=O)O)C2=O)c2ccccc21 (stereo unspecified)	–	17	–	–	–	–
O=S(=O)(c1ccc(N2CCN(S(=O)(=O)c3ccccc3)CC2)nc1)N1CCCC1	–	–	–	–	–	43
C[C@@H]1CN([C@@H](C)CO)C(=O)c2cccc(NC(=O)Nc3cccc4ccccc34)c2O[C@@H]1CN(C)Cc1ccc(C(=O)Nc2ccccc2N)cc1	·	–	–	–	·	–
c1ccc(-n2cc(CN3CCCC3)c(-c3ccc4c(c3)OCO4)n2)cc1	–	–	–	–	–	43
COc1ccc(S(=O)(=O)N(C)C[C@H]2Oc3c(NS(=O)(=O)c4cccs4)cccc3C(=O)N([C@@H](C)CO)C[C@@H]2C)cc1	·	–	–	–	·	·

Screens deposited in PubChem BioAssay by Broad Institute.
